Source: PubChem BioAssay
In the library only some 2.2% were active in any assay of this set; here they are far more common.
Nrf2 block: blocks Nrf2 signaling | A549 ARE-Fluc reporter, luciferase luminescence, 18-24 h | hit rate 2.1% among 360,000 | Potency, µM (titrated, usually from 46 µM), without a hit: at the top dose activity change, negative = inhibition, most hits filed as inhibitors; note: potency is the fitted concentration of half-maximal effect; % is set by controls: 0 for no effect and ±100 for the full control effect; nearly all actives have a fitted effect of over 60% in size
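Two sequential reads on A549 ARE_Fluc cells exposed to compound for 18-24 h: a CellTiter-Fluor fluorescence read for viability, then a luciferase luminescence read for Nrf2/ARE activity.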
miR-21 reporter: miR-21 reporter, rising signal; Potency, µM (titrated, usually from 38.3 µM), without a hit: at the highest dose reporter change, positive = more light; AID 2288; 340,000 tested, under 10 active; HeLa miR-21 FLuc reporter, luciferase, 48 h; active = well fitted rising curve with a large enough effect; inconclusive = small, poorly fitted or top-dose-only effect; inactive = no such curve, though single readings can be large or run the other way;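 note: % of control where 0% means no effect; miR-21 action dims this reporter so a rising signal means less miR-21 action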
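Compounds were titrated across several concentrations (up to approximately 40 uM) and incubated 48 hours with HeLa miR-21-FLuc reporter cells (miR-21 target sequence downstream of FLuc, endogenous miR-21). Readout was firefly luciferase luminescence after lytic detection reagent.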
GALK inh: galactokinase (human) inhibition; P51570; Purified GALK, Kinase-Glo residual ATP luminescence; Potency, µM (top dose mostly 57.5 µM), inactives show at the highest dose activity change, negative = inhibition, usual class: inhibitors; hit rate 0.007% among 270,000; AID 1868; note: potency is the fitted concentration of half-maximal effect; % is set by controls: 0 for no effect and ±100 for the full control effect
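5 nM enzyme, 35 uM ATP, 100 uM galactose, 20 mM HEPES pH8.0, 5 mM MgCl2; 1 h RT; residual ATP by Kinase-Glo Plus luminescence, qHTS format.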
PI4K2A inh: inhibitors of human PI4K2A; purified PI4K2A, ADP-Glo luminescence, 1 h; stronger effect = lower value; activity change, negative = inhibition, % at 76.9 µM; hit rate 0.13% among 420,000; in the data active = activity change below about -50%; inconclusive = mostly about -30% to -49%;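 note: -100% = wells without enzyme as full effect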
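Compounds are screened against recombinant PI4K2A using PI as substrate and ATP, the latter dispensed at 300 microM. Reactions run one hour at ambient temperature before ADP-Glo detection; full inhibition defined by wells lacking enzyme.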
Nrf2 activator: Nrf2 pathway activation. Potency, µM (top dose mostly 46.1 µM), for inactives: at the highest dose activation, actives largely listed as activators. hit rate 0.31% among 410,000. AREc32 ARE-luciferase reporter (MCF7-derived line), luminescence, 24 h. AID 624171; note: potency is the fitted concentration of half-maximal effect; % of control where 0% means no effect; nearly all actives have a fitted effect of over 65% in size
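ARE activation measured as luciferase luminescence (Steady-Glo, 30 min RT) in AREc32_Fluc cells after 24 hr compound exposure at 37 deg C, 5% CO2; cells seeded overnight at 1000/well in OPTI-MEM, 5% FBS.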
A549 tox-1: counter-screen for Nrf2 inhibitors: cytotoxicity in A549 cells; A549 ARE-Fluc cells, CellTiter-Fluor viability, 18-24 h; Potency, µM (highest dose often 46 µM), inactives show at the highest dose activity change, negative = cytotoxicity, hits mostly inhibitors; hit rate 0.16% among 390,000; AID 504648; note: potency is the fitted concentration of half-maximal effect; % is set by controls: 0 for no effect and ±100 for the full control effect
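A549 ARE_Fluc cells in 5% FBS OPTI-MEM were exposed to compounds in concentration-response for 18-24 h at 37 deg C. Viability was read by CellTiter-Fluor fluorescence (Ex 405/Em 525) after 30 min, before the luciferase read.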
FLuc counter 3: firefly luciferase inhibition, Nrf2 hit validation; shares compounds with Nrf2 block; Potency, µM (highest dose often 57.5 µM), without a hit: top-dose activity change, negative = inhibition, most hits filed as inhibitors; AID 720522; hit rate 4% among 1,400; purified firefly luciferase, luminescence inhibition; note: potency is the fitted concentration of half-maximal effect; % is set by controls: 0 for no effect and ±100 for the full control effect; nearly all actives have a fitted effect of over 65% in size
A549 tox-2: A549 cytotoxicity, Nrf2 inhibitor counterscreen; shares compounds with Nrf2 block; A549 ARE-Fluc cells, cytotoxicity counterscreen; Potency, µM (series often up to 46.1 µM), without a hit: at the highest dose activity change, negative = cytotoxicity, actives largely listed as inhibitors; hit rate 2% among 1,400; AID 720523;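 note: potency is the fitted concentration of half-maximal effect; cells exposed to compounds for 18 to 24 hours; % is set by controls: 0 for no effect and ±100 for the full control effect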
Nrf2 ARE inh: confirmation of Nrf2 inhibitors in A549 ARE reporter cells; shares compounds with Nrf2 block; A549 ARE-firefly luciferase reporter, luminescence; Potency, µM (highest dose often 46.1 µM), inactives show at the highest dose activity change, negative = inhibition, most hits filed as inhibitors; hit rate 74% among 1,400; AID 720524; note: potency is the fitted concentration of half-maximal effect; % is set by controls: 0 for no effect and ±100 for the full control effect; nearly all actives have a fitted effect of over 65% in size
* marks the source's active call; other numbers are inactive results. Unless noted, calls come from the whole dose curve; as a rule, active = well fitted curve in the direction sought with a large enough effect; inconclusive = small, poorly fitted or top-dose-only effect, or another doubt; inactive = no such curve, though single readings can be large; an effect the other way counts as inactive or inconclusive.

Screening C=CCn1c(O)c(C(C)=NCc2cc(OC)cc(OC)c2)c(=O)[nH]c1=O returned Nrf2 block 7.3µM*, miR-21 reporter 29%, GALK inh 1%, PI4K2A inh 1, Nrf2 activator 0%, A549 tox-1 0%, FLuc counter 3 2%, A549 tox-2 -14% and Nrf2 ARE inh 15µM*.
For N[C@@H](Cn1ccc(=O)[nH]c1=O)C(=O)O the results were PI4K2A inh 5.
`CCOc1ccc(C(=O)Nc2cccc(C(=O)OCc3cc(=O)n4nc(C5CC5)sc4n3)c2)cc1` gave miR-21 reporter -34%, PI4K2A inh 0, Nrf2 activator 0% and A549 tox-1 -10%.
Cc1ccc(-c2cc(-c3ccc(C)cc3)[n+](-c3ccccc3)c(-c3ccc(C)cc3)c2)cc1 was read as Nrf2 block 2.6µM*, PI4K2A inh -4, Nrf2 activator -3%, A549 tox-1 inconclusive, FLuc counter 3 4% and A549 tox-2 5.8µM*.
Screening c1ccc(-c2cc(-c3ccccc3)[n+](-c3ccccc3)c(-c3ccccc3)c2)cc1 returned Nrf2 block inconclusive, miR-21 reporter inconclusive, PI4K2A inh -2, Nrf2 activator -3% and A549 tox-1 inconclusive.
For CN(C)c1ccc(-[n+]2c(-c3ccccc3)cc(-c3ccccc3)cc2-c2ccccc2)cc1 the results were Nrf2 block 2.9µM*, miR-21 reporter inconclusive, GALK inh -2%, PI4K2A inh 7, Nrf2 activator 0%, A549 tox-1 inconclusive, FLuc counter 3 -3%, A549 tox-2 inconclusive and Nrf2 ARE inh 3.7µM*.
Screening C[C@H]1CCCC=CC2C[C@H](O)C[C@@H]2[C@H](O)C=CC(=O)O1 (stereo partly specified) returned FLuc counter 3 1%, A549 tox-2 inconclusive and Nrf2 ARE inh 0.23µM*.
Screening COc1ccc(C[C@H]2NC[C@H](O)[C@H]2OC(C)=O)cc1 returned Nrf2 block 0.12µM*, PI4K2A inh 2, Nrf2 activator -1%, A549 tox-1 inconclusive, FLuc counter 3 -18%, A549 tox-2 1% and Nrf2 ARE inh 7.3µM*.
`COc1ccc(CCNC2CCCCC2)cc1` gave Nrf2 block -6%, miR-21 reporter -2%, GALK inh -1%, PI4K2A inh -3, Nrf2 activator -1% and A549 tox-1 -10%.
Screening C[C@H]1C[C@@H](C)C(=O)[C@@H]([C@H](O)CC2CC(=O)NC(=O)C2)C1 returned Nrf2 block 0.41µM*, miR-21 reporter inconclusive, GALK inh 0%, PI4K2A inh -2, Nrf2 activator -2%, A549 tox-1 inconclusive, FLuc counter 3 0%, A549 tox-2 -27% and Nrf2 ARE inh 13µM*.
For Cc1ccc(-c2cc(-c3ccc(C)cc3)[n+](C)o2)cc1 the results were Nrf2 block 5.2µM*, miR-21 reporter inconclusive, PI4K2A inh 3, Nrf2 activator 0%, A549 tox-1 inconclusive, FLuc counter 3 -20%, A549 tox-2 -17% and Nrf2 ARE inh 3.7µM*.
For Cc1ccc(-c2cc(-c3ccc(C)cc3)[n+](-c3ccc(C(=O)[O-])cc3)c(-c3ccc(C)cc3)c2)cc1 the results were Nrf2 block 21%, PI4K2A inh -4, Nrf2 activator 0% and A549 tox-1 3%.
`Cc1cc2c(cc1C)-n1c(-c3ccccc3)c3c(=O)n(C)c(=O)n(C)c3c1C(c1ccco1)N2` (stereo unspecified) gave Nrf2 block inconclusive, miR-21 reporter 18%, PI4K2A inh 0, Nrf2 activator 0% and A549 tox-1 0%.
Screening Nc1nc(F)nc2c1ncn2[C@@H]1O[C@H](CO)[C@@H](O)[C@@H]1O returned Nrf2 block 5.8µM*, miR-21 reporter -2%, PI4K2A inh -5, Nrf2 activator -1%, A549 tox-1 -5%, FLuc counter 3 -2%, A549 tox-2 -21% and Nrf2 ARE inh 16µM*.
Screening COc1cc2cc(c1Cl)N(C)C(=O)CC(OC(=O)C(C)N(C)C(C)=O)C1(C)OC1C(C)C1CC(O)(NC(=O)O1)C(OC)C=CC=C(C)C2 (stereo unspecified) returned Nrf2 block inconclusive, PI4K2A inh 1, Nrf2 activator -1% and A549 tox-1 -18%.
`C=C(C)[C@@]12OC3(c4ccccc4)O[C@@H]1C1[C@@H]4O[C@]4(CO)[C@@H](O)[C@]4(O)C(=O)C(C)=C[C@H]4[C@@]1(O3)[C@H](C)[C@H]2OC(=O)/C=C/C=C/c1ccccc1` (stereo partly specified) gave Nrf2 block 0.0052µM*, PI4K2A inh -4, Nrf2 activator -2%, A549 tox-1 -26%, FLuc counter 3 -1%, A549 tox-2 inconclusive and Nrf2 ARE inh 0.018µM*.
For CCc1ccc(Nc2nc3c(S(=O)(=O)c4ccc(C)cc4)nnn3c3ccsc23)cc1 the results were Nrf2 block inconclusive, miR-21 reporter 10%, PI4K2A inh 0, Nrf2 activator 1% and A549 tox-1 -12%.
For C[C@@H](C1CC[C@@]2(O)C3=CC(=O)[C@@H]4C[C@@H](O)[C@@H](O)C[C@]4(C)[C@H]3CC[C@]12C)[C@H](O)CCC(C)(C)O (stereo partly specified) the results were Nrf2 block 19% and A549 tox-1 6%.
Screening CC1=CC(O)C(O)C2(C)C1CC1OC(=O)CC3C(C)C(O)C(=O)C2C13CO (stereo unspecified) returned Nrf2 block 2.1µM*, PI4K2A inh -1, Nrf2 activator -2%, A549 tox-1 inconclusive, FLuc counter 3 3% and A549 tox-2 -29%.

3 entries already listed, sorted by length of the SMILES, falling.
Screening C[C@H]1C[C@@H](C)C(=O)[C@@H]([C@H](O)CC2CC(=O)NC(=O)C2)C1 returned Nrf2 block 0.41µM*, miR-21 reporter inconclusive, GALK inh 0%, PI4K2A inh -2, Nrf2 activator -2%, A549 tox-1 inconclusive, FLuc counter 3 0%, A549 tox-2 -27% and Nrf2 ARE inh 13µM*.
Screening COc1ccc(C[C@H]2NC[C@H](O)[C@H]2OC(C)=O)cc1 returned Nrf2 block 0.12µM*, PI4K2A inh 2, Nrf2 activator -1%, A549 tox-1 inconclusive, FLuc counter 3 -18%, A549 tox-2 1% and Nrf2 ARE inh 7.3µM*.
`COc1ccc(CCNC2CCCCC2)cc1` gave Nrf2 block -6%, miR-21 reporter -2%, GALK inh -1%, PI4K2A inh -3, Nrf2 activator -1% and A549 tox-1 -10%.
